Values quoted from earlier work as cited in patent US20250000903A1, “EXPANSION PROCESSES AND AGENTS FOR TUMOR INFILTRATING LYMPHOCYTES” (Iovance Biotherapeutics, Inc., priority 2021, published 2025).

Settings: 1 mg vial, according to the COA; cited from earlier work

rhIL-2 lot 10200121: purified, lyophilized recombinant human interleukin-2 (Cellgenix lot)
specific activity: 25×10^6 IU/mg
